Two molecules from patent US20030054004A1 (published 2003) can be followed below.

Protein sequences, listed by entry. Tags and fused reporters are not part of them. Residues count along the entry.
UniProt P01375, 77-233: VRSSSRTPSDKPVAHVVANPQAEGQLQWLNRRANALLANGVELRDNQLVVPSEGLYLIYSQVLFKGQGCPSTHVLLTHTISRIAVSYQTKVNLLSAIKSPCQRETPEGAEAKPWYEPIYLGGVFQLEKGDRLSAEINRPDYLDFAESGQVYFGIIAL

This assay deals with T1, recombinant human TNFα (human, UniProt P01375 77-233).
T1 construct: E. coli-derived or bought recombinant human TNF (Suntory, Dainippon, R&D Systems); also called rhTNF; rhTNFα
The experiment in a line: Scatchard analysis, direct binding of 125I-labelled antibody to rhTNFα immobilized in a 96-well plate.

B1: mouse anti-human TNF IgG1 mAb A2 (antibody, V domains shown)
VH: EVKLEESGGGLVQPGGSMKLSCVASGFIFSNHWMNWVRQSPEKGLEWVAEIRSKSINSATHYAESVKGRFTISRDDSKSAVYLQMTDLRTEDTGVYYCSRNYYGSTYDYWGQGTTLTVS
VL: DILLTQSPAILSVSPGERVSFSCRASQFVGSSIHWYQQRTNGSPRLLIKYASESMSGIPSRFSGSGSGTDFTLSINTVESEDIADYYCQQSHSWPFTFGSGTNLEVK
notes: Mouse IgG1 from hybridoma A2 (cell line c134A); also called murine A2; mA2
Consider B1, for which the Ka amounted to 5e+08 M⁻¹.

B2: chimeric A2 (cA2) anti-TNF antibody (antibody, V domains shown)
VH: B1 VH
VL: B1 VL
notes: Expressed in SP2/0 cells (cell line c168A); also called chimeric mAb cA2
Turning to B2, the Ka is 1.8e+09 M⁻¹.
